Key:
Assay type in all cases: biochemical
KAT7 = KAT7 (Homo sapiens (Human), UniProt O95251); test: KAT assay (SAMDI mass spectrometry), KAT7; details: read-out: KAT7 Ki at 1 μM AcCoA;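 note: Baculovirus-expressed enzyme acetylating a histone peptide at room temperature, percent conversion from product and substrate peak areas, Ki from a Morrison tight-binding competitive fit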
KAT6A = KAT6A (Homo sapiens (Human), UniProt Q92794); test: KAT assay (SAMDI mass spectrometry), KAT6A; details: read-out: KAT6a Ki at 1 μM AcCoA;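 note: Baculovirus-expressed KAT6A acetylating histone H3 (1-21) peptide (2 µM), 30-60 min at room temperature, % product conversion fitted to Morrison equation for tight-binding competitive inhibitors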
KAT5 = KAT5 (Homo sapiens (Human), UniProt Q92993); test: KAT assay (SAMDI mass spectrometry), KAT5; details: read-out: KAT5 Ki at 1 μM AcCoA;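 note: Baculovirus-expressed KAT5 acetylating a histone H4 peptide at room temperature, read as percent conversion to product, Ki from a Morrison tight-binding competitive fit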
KAT6B = KAT6B (Homo sapiens (Human), UniProt Q8WYB5); test: KAT assay (SAMDI mass spectrometry), KAT6B; details: read-out: KAT6b Ki at 1 μM AcCoA
KAT8 = KAT8 (Homo sapiens (Human), UniProt Q9H7Z6); test: KAT assay (SAMDI mass spectrometry), KAT8; details: read-out: KAT8 Ki at 1 μM AcCoA

Chains of the proteins cited; added tags and fusions are not shown.
UniProt O95251, whole entry: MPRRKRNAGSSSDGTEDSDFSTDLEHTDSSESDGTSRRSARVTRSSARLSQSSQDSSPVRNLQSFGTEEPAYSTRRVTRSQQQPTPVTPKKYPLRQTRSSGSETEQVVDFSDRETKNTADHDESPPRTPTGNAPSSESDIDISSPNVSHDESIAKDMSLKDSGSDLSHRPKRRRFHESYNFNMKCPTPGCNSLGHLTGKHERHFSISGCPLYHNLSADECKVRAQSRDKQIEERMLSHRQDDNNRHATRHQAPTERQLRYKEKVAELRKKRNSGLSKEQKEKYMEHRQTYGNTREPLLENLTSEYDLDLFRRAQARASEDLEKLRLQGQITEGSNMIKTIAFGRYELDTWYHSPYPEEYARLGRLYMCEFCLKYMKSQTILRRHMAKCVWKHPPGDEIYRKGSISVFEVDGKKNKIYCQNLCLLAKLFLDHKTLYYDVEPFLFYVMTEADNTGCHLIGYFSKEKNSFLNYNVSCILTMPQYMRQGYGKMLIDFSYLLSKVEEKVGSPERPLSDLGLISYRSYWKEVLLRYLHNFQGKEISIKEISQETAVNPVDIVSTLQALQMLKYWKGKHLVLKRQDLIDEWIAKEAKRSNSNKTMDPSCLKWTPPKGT
UniProt Q92794, whole entry: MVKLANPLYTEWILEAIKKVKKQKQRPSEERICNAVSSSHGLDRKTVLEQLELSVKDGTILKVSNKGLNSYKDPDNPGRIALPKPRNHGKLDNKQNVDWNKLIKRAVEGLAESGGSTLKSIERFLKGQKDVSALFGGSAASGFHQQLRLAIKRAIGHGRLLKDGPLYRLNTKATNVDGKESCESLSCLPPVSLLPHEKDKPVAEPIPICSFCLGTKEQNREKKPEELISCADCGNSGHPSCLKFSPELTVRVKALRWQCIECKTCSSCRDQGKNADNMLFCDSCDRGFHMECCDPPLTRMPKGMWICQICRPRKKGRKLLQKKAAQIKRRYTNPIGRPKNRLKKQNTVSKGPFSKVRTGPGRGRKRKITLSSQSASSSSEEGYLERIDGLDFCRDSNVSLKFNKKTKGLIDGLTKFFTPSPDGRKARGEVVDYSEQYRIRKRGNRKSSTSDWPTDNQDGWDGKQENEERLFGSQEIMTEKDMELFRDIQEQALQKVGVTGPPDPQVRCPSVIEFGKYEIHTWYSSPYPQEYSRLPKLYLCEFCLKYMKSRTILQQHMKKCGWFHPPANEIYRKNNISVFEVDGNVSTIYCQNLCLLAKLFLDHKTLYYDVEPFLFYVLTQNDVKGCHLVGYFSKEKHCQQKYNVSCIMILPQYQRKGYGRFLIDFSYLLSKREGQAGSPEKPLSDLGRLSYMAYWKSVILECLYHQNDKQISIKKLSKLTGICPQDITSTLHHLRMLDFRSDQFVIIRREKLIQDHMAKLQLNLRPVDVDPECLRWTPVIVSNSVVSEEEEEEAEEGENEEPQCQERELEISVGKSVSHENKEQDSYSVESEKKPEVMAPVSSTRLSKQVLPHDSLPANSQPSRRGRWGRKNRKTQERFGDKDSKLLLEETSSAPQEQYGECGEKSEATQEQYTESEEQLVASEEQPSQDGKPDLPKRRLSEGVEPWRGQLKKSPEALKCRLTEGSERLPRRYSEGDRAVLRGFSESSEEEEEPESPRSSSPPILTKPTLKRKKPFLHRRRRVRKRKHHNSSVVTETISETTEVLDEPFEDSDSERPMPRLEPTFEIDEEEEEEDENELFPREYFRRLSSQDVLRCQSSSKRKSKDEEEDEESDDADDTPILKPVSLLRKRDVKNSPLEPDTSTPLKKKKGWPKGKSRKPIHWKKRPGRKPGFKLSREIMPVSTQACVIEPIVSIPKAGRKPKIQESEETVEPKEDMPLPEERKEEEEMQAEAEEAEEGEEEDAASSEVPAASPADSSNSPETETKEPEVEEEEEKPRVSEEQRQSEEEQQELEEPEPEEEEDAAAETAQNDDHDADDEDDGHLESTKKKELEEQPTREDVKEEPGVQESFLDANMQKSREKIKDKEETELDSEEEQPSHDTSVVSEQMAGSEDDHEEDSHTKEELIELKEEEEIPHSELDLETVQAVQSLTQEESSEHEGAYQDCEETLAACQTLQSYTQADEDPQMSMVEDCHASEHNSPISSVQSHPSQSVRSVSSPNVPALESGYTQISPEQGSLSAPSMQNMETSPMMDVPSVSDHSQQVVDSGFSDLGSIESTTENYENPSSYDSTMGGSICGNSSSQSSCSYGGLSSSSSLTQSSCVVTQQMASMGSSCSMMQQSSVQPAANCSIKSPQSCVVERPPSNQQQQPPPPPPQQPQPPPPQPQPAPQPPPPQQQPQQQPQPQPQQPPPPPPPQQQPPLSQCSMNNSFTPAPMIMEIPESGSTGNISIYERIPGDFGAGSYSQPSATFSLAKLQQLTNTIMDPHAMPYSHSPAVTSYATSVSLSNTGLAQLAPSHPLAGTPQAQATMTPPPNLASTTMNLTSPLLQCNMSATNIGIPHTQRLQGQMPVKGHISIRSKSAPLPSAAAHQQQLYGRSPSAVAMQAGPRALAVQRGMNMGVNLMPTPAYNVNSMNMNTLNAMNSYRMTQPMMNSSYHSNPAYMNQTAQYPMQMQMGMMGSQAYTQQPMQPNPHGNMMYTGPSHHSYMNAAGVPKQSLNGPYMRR
UniProt Q92993, whole entry: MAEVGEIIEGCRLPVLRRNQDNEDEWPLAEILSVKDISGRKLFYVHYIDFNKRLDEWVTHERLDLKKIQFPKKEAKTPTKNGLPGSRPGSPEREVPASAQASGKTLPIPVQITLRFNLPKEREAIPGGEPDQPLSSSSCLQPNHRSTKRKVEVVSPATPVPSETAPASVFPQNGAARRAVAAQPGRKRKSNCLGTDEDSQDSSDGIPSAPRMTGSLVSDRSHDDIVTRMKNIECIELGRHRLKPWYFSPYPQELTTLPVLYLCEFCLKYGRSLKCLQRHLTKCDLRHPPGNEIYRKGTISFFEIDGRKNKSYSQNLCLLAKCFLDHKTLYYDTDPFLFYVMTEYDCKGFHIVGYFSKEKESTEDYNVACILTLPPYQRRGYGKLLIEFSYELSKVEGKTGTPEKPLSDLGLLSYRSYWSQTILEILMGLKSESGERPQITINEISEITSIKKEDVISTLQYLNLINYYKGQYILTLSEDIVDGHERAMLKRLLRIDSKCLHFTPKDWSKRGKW
UniProt Q8WYB5, whole entry: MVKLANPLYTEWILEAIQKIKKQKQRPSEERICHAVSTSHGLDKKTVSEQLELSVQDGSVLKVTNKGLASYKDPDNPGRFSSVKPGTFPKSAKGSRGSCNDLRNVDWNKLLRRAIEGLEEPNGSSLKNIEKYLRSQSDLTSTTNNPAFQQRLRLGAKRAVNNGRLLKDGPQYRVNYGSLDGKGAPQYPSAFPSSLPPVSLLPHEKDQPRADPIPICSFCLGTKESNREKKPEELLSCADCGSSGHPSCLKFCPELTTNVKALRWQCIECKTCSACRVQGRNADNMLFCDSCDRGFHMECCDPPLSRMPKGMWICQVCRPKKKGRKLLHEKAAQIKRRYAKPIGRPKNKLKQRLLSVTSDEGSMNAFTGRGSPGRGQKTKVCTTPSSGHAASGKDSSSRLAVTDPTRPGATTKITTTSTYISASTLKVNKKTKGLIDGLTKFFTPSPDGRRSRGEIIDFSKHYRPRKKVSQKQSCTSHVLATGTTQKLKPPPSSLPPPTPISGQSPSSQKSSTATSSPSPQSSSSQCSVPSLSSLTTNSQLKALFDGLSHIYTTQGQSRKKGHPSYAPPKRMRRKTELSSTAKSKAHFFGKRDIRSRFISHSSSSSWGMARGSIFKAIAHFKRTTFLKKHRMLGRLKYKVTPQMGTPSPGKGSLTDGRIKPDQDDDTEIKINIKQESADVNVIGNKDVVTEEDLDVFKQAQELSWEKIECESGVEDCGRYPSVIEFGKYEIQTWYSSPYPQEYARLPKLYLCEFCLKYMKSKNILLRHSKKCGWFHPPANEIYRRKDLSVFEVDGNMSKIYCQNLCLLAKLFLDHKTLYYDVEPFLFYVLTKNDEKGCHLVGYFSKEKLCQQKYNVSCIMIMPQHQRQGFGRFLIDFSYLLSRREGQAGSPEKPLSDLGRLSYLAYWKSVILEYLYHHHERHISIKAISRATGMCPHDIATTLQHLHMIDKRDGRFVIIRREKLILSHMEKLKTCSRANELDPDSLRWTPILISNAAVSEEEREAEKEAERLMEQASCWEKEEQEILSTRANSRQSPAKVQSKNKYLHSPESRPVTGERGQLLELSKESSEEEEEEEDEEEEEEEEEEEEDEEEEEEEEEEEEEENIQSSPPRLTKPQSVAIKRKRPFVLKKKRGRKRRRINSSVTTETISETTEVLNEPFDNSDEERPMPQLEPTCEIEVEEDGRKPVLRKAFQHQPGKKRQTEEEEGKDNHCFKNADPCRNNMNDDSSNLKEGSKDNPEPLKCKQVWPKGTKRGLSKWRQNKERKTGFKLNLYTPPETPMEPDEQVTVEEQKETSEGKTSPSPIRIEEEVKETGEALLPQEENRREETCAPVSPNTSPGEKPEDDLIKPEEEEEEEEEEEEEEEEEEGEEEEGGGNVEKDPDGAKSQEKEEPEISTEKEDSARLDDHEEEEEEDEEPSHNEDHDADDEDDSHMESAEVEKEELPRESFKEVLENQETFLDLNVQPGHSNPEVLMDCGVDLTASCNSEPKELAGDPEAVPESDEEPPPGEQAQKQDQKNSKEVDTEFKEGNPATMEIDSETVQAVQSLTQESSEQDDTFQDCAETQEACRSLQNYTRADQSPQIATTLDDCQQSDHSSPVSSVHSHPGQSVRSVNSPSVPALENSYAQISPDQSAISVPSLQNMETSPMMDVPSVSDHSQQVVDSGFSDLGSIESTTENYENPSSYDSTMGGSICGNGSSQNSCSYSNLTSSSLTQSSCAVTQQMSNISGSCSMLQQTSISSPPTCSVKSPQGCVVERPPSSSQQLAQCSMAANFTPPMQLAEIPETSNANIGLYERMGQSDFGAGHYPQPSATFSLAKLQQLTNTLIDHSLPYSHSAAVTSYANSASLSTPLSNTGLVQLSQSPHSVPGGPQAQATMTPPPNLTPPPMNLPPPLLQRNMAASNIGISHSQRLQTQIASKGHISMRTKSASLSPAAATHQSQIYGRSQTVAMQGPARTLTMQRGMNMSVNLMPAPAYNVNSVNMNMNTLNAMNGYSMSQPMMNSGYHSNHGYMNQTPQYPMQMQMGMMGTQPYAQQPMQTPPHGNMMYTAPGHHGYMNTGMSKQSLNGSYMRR
UniProt Q9H7Z6, whole entry: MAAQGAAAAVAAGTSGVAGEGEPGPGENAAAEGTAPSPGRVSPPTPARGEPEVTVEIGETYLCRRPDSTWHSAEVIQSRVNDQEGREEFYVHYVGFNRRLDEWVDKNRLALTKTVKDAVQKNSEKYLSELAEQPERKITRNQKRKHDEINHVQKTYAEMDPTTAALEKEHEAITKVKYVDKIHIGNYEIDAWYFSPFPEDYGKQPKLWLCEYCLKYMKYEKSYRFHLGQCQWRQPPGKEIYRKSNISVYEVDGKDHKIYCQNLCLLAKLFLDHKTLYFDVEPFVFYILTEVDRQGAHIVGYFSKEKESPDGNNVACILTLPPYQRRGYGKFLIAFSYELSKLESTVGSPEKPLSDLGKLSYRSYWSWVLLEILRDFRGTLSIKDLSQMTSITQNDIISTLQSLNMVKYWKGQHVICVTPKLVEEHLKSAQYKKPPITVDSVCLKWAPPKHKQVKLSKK

Compound	Ki (KAT7) [nM]	Ki (KAT6A) [nM]	Ki (KAT5) [nM]	Ki (KAT6B) [nM]	Ki (KAT8) [nM]
COc1cccc(OC)c1S(=O)(=O)Nc1noc2cc(C(O)c3cocn3)cc(OC)c12 (single isomer, unassigned)	7510	–	–	–	–
COc1cc(Cn2cccn2)cc2onc(NS(=O)(=O)c3c(C)cccc3F)c12	1040	17.7	–	–	–
COc1cccc(OC)c1S(=O)(=O)Nc1noc2cc(Cn3ccc(C)n3)cc(OC)c12	700	46.9	13000	50.4	36700
